Screening data deposited in PubChem by National Center for Advancing Translational Sciences (NCATS).
A549 viability – kills or reduces viability of A549 cells in Nrf2 counter-screen; actives 0.16% (n = 390,000); AID 504648; Potency, µM (titrated, usually from 46 µM), for the others: at the highest dose activity change, negative = cytotoxicity, most hits filed as inhibitors; A549 ARE-Fluc cells, CellTiter-Fluor viability, 18-24 h; also: potency is read from the fitted curve at half-maximal effect; % is scaled to controls: 0 for no effect and ±100 for the full control effect
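Cytotoxicity counterscreen: CellTiter-Fluor fluorescence was measured in A549 ARE_Fluc cells after 18-24 h of compound exposure in a concentration series. The subsequent BugLite luminescent read reports ARE-luciferase activity.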
IL2 activator – IL-2 activation | activation, % (series mostly up to about 46 µM) | actives 0.065% (n = 360,000) | IL-2 activation reporter assay, cell-based qHTS; stimulated with anti-CD3/CD4/CD28 beads; in transgenic mouse T cells; in the data active = activation above about 50%; inconclusive = mostly about 30% to 49%; also: 0% is about no effect
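First, unstimulated transgenic mouse T cells were exposed to compound for 60 min. Next, anti-CD3/anti-CD4-coated beads with anti-CD28 were added. Finally, after 18 h at 37 degrees C, EGFP and DsRed were imaged.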
Nrf2 inh – inhibitors of Nrf2 signaling | Potency, µM (doses to about 46 µM), for the others: at the highest dose activity change, negative = inhibition, usual class: inhibitors | actives 2.1% (n = 360,000) | A549 ARE-Fluc reporter, luciferase luminescence, 18-24 h | AID 504444; also: potency is read from the fitted curve at half-maximal effect; % is scaled to controls: 0 for no effect and ±100 for the full control effect; nearly all actives have a fitted effect of over 60% in size
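Two sequential reads on A549 ARE_Fluc cells exposed to compound for 18-24 h: a CellTiter-Fluor fluorescence read for viability, then a luciferase luminescence read for Nrf2/ARE activity.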
Nrf2 ARE act – activates Nrf2 signaling; Potency, µM (doses to about 46.1 µM), inactives show at the top dose activation, hits mostly activators; actives 0.31% (n = 410,000); AREc32 ARE-luciferase reporter (MCF7-derived line), luminescence, 24 h; also: potency is read from the fitted curve at half-maximal effect; % of control where 0% means no effect; nearly all actives have a fitted effect of over 65% in size
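Luciferase luminescence (Steady-Glo, 30 min at room temperature) served as the read-out of ARE activation in AREc32 cells treated with compounds for 24 hr at 37 deg C.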
miR-21 reporter – miR-21 reporter, rising signal; HeLa miR-21 FLuc reporter, luciferase, 48 h; Potency, µM (highest dose often 38.3 µM), for the others: top-dose reporter change, positive = more light; 340,000 tested, under 10 active; AID 2288; active = well fitted rising curve with a large enough effect; inconclusive = small, poorly fitted or top-dose-only effect; inactive = no such curve, though single readings can be large or run the other way;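 further: % of control where 0% means no effect; miR-21 action dims this reporter so a rising signal means less miR-21 action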
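Using DMEM plus 10% FBS, HeLa miR-21-FLuc cells are incubated with test compounds (final up to about 40uM) for 48 hours; firefly luciferase signal is then imaged following reagent-mediated lysis.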
ClpP mod – qHTS Assay for Activators of ClpP. ATP-dependent Clp protease proteolytic subunit (Bacillus subtilis (strain 168)), P80244. purified B. subtilis ClpP, FRET peptide cleavage, 20 min. Potency, µM (titrated, usually from 57.5 µM), without a hit: at the top dose activity change, negative = active. actives 1.9% (n = 340,000); active = well fitted falling curve with a large enough effect; inconclusive = small, poorly fitted or top-dose-only effect; inactive = no such curve, though single readings can be large or run the other way; also: potency is read from the fitted curve at half-maximal effect; the source files actives as falling curves though it sought activators and does not explain the sign; nearly all actives have a fitted effect of over 65% in size
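Buffer: 100 mM Tris/HCl pH8, 100 mM KCl, 0.05% low protease BSA, 2.5% glycerol, 0.01% Tween-20. ClpP 10 microg/mL final; 20 min RT; delta FRET normalized to ADEP and DMSO controls.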
Starred values were filed as active, the others as inactive; ? = inconclusive; . = not tested or not shown. In the library only some 3.7% were active in any assay of this set; here they are far more common. Unless noted, calls follow the shape of the dose curve; as a rule, active = well fitted curve in the direction sought with a large enough effect; inconclusive = small, poorly fitted or top-dose-only effect, or another doubt; inactive = no such curve, though single readings can be large; an effect the other way counts as inactive or inconclusive.

The chains behind the UniProt entries cited, without tags or fusion partners.
ATP-dependent Clp protease proteolytic subunit (Bacillus subtilis (strain 168)), P80244, UniProt P80244, whole entry, looked up: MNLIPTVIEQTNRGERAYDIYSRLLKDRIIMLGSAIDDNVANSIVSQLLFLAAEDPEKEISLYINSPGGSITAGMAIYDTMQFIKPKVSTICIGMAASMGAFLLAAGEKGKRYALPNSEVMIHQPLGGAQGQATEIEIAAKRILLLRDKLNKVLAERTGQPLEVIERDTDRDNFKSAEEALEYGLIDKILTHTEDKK

Assay codes – A = A549 viability; B = IL2 activator; C = Nrf2 inh; D = Nrf2 ARE act; E = miR-21 reporter; F = ClpP mod
canonical_smiles: COc1cccc(-c2noc(-c3cc(C(C)C)[nH]n3)n2)c1OC
  A = 6% | B = . | C = ? | D = ? | E = -57% | F = 1%

canonical_smiles: CCOCCCNC(=O)c1ccc(-n2c(-c3ccccc3)cc3c2CCC(C)C3)cc1 (stereo unspecified)
  A = -3% | B = . | C = ? | D = ? | E = 16% | F = ?

canonical_smiles: COCCCNC(=O)c1ccc(-n2c(-c3ccccc3)cc3c2CCCC3)cc1
  A = 2% | B = . | C = -10% | D = 13µM* | E = 3% | F = -14%

canonical_smiles: CCN(CC)CCNC(=O)c1ccc(NC(=O)c2ccc3c(c2)CCC3)cc1
  A = -28% | B = 2 | C = -1% | D = 4% | E = -34% | F = -3%

canonical_smiles: CCN(CC)CCNC(=O)c1ccc(-n2c(-c3ccccc3)cc3c2CCCC3)cc1
  A = 2% | B = . | C = ? | D = 11µM* | E = 26% | F = -4%

canonical_smiles: COc1cccc(/C=C/C(=O)c2ccc[nH]2)c1
  A = -2% | B = 2 | C = ? | D = 16µM* | E = -18% | F = 1%

canonical_smiles: CC(C)c1nc2oc3c(=O)[nH]cnc3c2c2c1COC(C)(C)C2
  A = -6% | B = -1 | C = -12% | D = -1% | E = -3% | F = 4%

canonical_smiles: CC(C)c1nc2oc3c(=O)[nH]cnc3c2c2c1CCC2
  A = -2% | B = -2 | C = -9% | D = -1% | E = -2% | F = 13µM*

canonical_smiles: CC(=O)Nc1ccc(NC(=O)COc2ccc(-c3ccc(C#N)cc3)cc2)cc1
  A = 1% | B = 1 | C = 9% | D = 0% | E = . | F = ?

canonical_smiles: O=C(COc1ccc(C(=O)c2ccccc2)cc1)Nc1cccnc1
  A = ? | B = -5 | C = 23µM* | D = 0% | E = 23% | F = .

canonical_smiles: O=C(CCCOc1ccccc1)Nc1cccnc1
  A = 4% | B = 1 | C = 11% | D = -1% | E = 0% | F = 0%

canonical_smiles: N#Cc1ccc(-c2ccc(OCC(=O)Nc3cccnc3)cc2)cc1
  A = -13% | B = -3 | C = 7.3µM* | D = 2% | E = 23% | F = 16µM*

canonical_smiles: Cc1noc(-c2ccc(NC(C)c3ccccc3)c([N+](=O)[O-])c2)n1 (stereo unspecified)
  A = 3% | B = . | C = 9% | D = 4% | E = 3% | F = 0%

canonical_smiles: CC(=O)C1=C(OC(=O)C(C)C)c2ccccc2S(=O)(=O)N1Cc1ccccc1
  A = -11% | B = . | C = 8% | D = 0% | E = ? | F = 1%

canonical_smiles: Cc1cc(C(=O)OCC(=O)N2CCC(c3ccccc3)=N2)ccc1[N+](=O)[O-]
  A = -2% | B = 0 | C = -3% | D = -1% | E = . | F = 3%

canonical_smiles: O=C(OCC(=O)N1CCC(c2ccccc2)=N1)c1ccc([N+](=O)[O-])s1
  A = ? | B = -1 | C = 23µM* | D = 13% | E = . | F = -2%

canonical_smiles: O=C1CS(=O)(=O)C2(C(=O)N(Cc3cccc(F)c3)c3ccccc32)N1c1ccccc1 (stereo unspecified)
  A = 13% | B = . | C = -38% | D = 0% | E = 1% | F = -2%

canonical_smiles: CC(C)C(NS(=O)(=O)c1ccccc1)C(=O)OCc1cc([N+](=O)[O-])cc2c1OCOC2 (stereo unspecified)
  A = 13% | B = 4 | C = 6% | D = 0% | E = 2% | F = 32µM*

canonical_smiles: CCN1CCc2c(sc(N)c2C(N)=O)C1
  A = 2% | B = -3 | C = . | D = 0% | E = -3% | F = 14µM*

canonical_smiles: CN1CCc2c(sc(N)c2C(N)=O)C1
  A = 14% | B = -1 | C = 9% | D = 0% | E = 1% | F = 20µM*

canonical_smiles: NC(=O)c1c(N)sc2c1CCCC2
  A = -2% | B = -1 | C = 3% | D = 3% | E = -14% | F = -8%

canonical_smiles: O=C(Nc1nccs1)c1ccc(S(=O)(=O)NCC2CCCCC2)cc1
  A = -17% | B = -4 | C = 13µM* | D = 0% | E = 17% | F = 7%

canonical_smiles: Cc1cccc(C(=O)Nc2cc(-c3ccccc3F)nn2-c2ccccc2)c1
  A = 16% | B = . | C = . | D = 0% | E = -9% | F = ?

canonical_smiles: CCOc1ccc(/C=N/NC(=O)c2ccccc2NC(=O)c2ccc(OC)cc2)cc1
  A = -5% | B = 1 | C = 12% | D = 7% | E = -24% | F = 28µM*

canonical_smiles: COc1ccc(OC)c(CNc2ncc(-c3ccc(Cl)cc3)n2C)c1
  A = -8% | B = . | C = -12% | D = 0% | E = 0% | F = -6%

Next section; it opens with the 3 that closed the last part.
Assay codes – A = A549 viability; B = IL2 activator; C = Nrf2 inh; D = Nrf2 ARE act; E = miR-21 reporter; F = ClpP mod
canonical_smiles: Cc1cccc(C(=O)Nc2cc(-c3ccccc3F)nn2-c2ccccc2)c1
  A = 16% | B = . | C = . | D = 0% | E = -9% | F = ?

canonical_smiles: CCOc1ccc(/C=N/NC(=O)c2ccccc2NC(=O)c2ccc(OC)cc2)cc1
  A = -5% | B = 1 | C = 12% | D = 7% | E = -24% | F = 28µM*

canonical_smiles: COc1ccc(OC)c(CNc2ncc(-c3ccc(Cl)cc3)n2C)c1
  A = -8% | B = . | C = -12% | D = 0% | E = 0% | F = -6%

canonical_smiles: FC(F)(F)c1nc(-c2ccncc2)ncc1-c1nnnn1-c1ccccc1
  A = -2% | B = -3 | C = -5% | D = 0% | E = 4% | F = -1%

canonical_smiles: FC(F)(F)c1ccncc1-c1nnnn1-c1ccc(Cl)cc1
  A = 0% | B = -8 | C = -4% | D = -1% | E = 13% | F = 0%

canonical_smiles: FC(F)(F)c1nc(N2CCCC2)ncc1-c1nnnn1-c1ccc(Cl)cc1
  A = -13% | B = -3 | C = 13µM* | D = 3% | E = 19% | F = -1%

canonical_smiles: Fc1ccc(-n2nnnc2-c2cnc(-c3cccs3)nc2C(F)(F)F)cc1
  A = ? | B = -4 | C = 15µM* | D = -2% | E = ? | F = ?

canonical_smiles: Cc1ccc(C2=NN(CCC(=O)NCc3ccc4c(c3)OCO4)C(=O)CC2)cc1
  A = 1% | B = 0 | C = -1% | D = 2% | E = -5% | F = 7.9µM*

canonical_smiles: COc1cc(Cl)ccc1OCc1cc(C(=O)N2CCN(C)C(=O)[C@@H]2C)no1
  A = . | B = -2 | C = . | D = 8% | E = . | F = -1%

canonical_smiles: Cc1cc(OCc2cc(C(=O)N3CCN(C)C(=O)[C@@H]3C)no2)cc(C)c1Cl
  A = -10% | B = -3 | C = 21µM* | D = 0% | E = 23% | F = 1%

canonical_smiles: Cc1cccc(NC(=O)c2sc3nc4c(cc3c2N)CN(C(C)C)CC4)c1
  A = -14% | B = . | C = 16µM* | D = 4% | E = 22% | F = -21%

canonical_smiles: Cc1cccc(NC(=O)c2sc3nc4c(cc3c2N)CN(Cc2ccccc2)CC4)c1
  A = 0% | B = . | C = 19% | D = 3% | E = 3% | F = -10%

canonical_smiles: Cc1ccc(NC(=O)CSc2[nH]c(=O)ncc2C)cc1
  A = -18% | B = . | C = . | D = 4% | E = -40% | F = 3%

canonical_smiles: O=C(O)CCN1C(=O)c2ccc(NC(=O)CSc3ccccc3)cc2C1=O
  A = 2% | B = 0 | C = -1% | D = 0% | E = 0% | F = 1%

canonical_smiles: O=C(O)CCN1C(=O)c2ccc(NC(=O)c3cccs3)cc2C1=O
  A = -4% | B = -1 | C = 6% | D = 0% | E = -6% | F = 32µM*

canonical_smiles: CCC(=O)Nc1ccc2c(c1)C(=O)N(C)C2=O
  A = -10% | B = 0 | C = -12% | D = 0% | E = 2% | F = 28µM*

canonical_smiles: CCCC(=O)Nc1ccc2c(c1)C(=O)N(CCC(=O)O)C2=O
  A = 9% | B = 0 | C = . | D = 0% | E = 0% | F = 28µM*

canonical_smiles: CCCSc1ncc(Cl)c(C(=O)Nc2sc(C(C)=O)c(C)c2C(=O)OCC)n1
  A = -11% | B = . | C = -22% | D = 0% | E = 0% | F = -1%

canonical_smiles: CC(=O)Nc1ccc(CCNC(=O)c2ccc3ccccc3c2O)cc1
  A = 0% | B = 2 | C = ? | D = 2% | E = . | F = 25µM*

canonical_smiles: O=C(c1ccc(S(=O)(=O)NCC2CCCO2)cc1)N1CCN(c2ccccc2F)CC1 (stereo unspecified)
  A = 1% | B = 1 | C = -7% | D = -1% | E = 10% | F = 1%

canonical_smiles: O=C(c1ccc(S(=O)(=O)NCC2CCCO2)cc1)N1CCN(c2cccc(Cl)c2)CC1 (stereo unspecified)
  A = 2% | B = -3 | C = 13µM* | D = 0% | E = 17% | F = 2%

canonical_smiles: O=C(Nc1cccc(F)c1)c1ccc(S(=O)(=O)NCC2CCCO2)cc1 (stereo unspecified)
  A = -4% | B = 1 | C = 21µM* | D = 6% | E = 5% | F = 1%
